Data on one compound can be found in patent US20100222251A1, “MIXTURE COMPRISING AN AMYLIN PEPTIDE AND A PROTRACTED INSULIN” (Novo Nordisk A/S, priority 2007, published 2010).

A short description of data set [1]: Solubility versus pH curves (centrifugation, reverse HPLC). Type of data set: physicochemical. The note with it: Example 3 mix, 0.6 mM GlyA21 ArgB31 ArgB32 human insulin, 0.3 mM Zn(Ac)2, 30 mM phenol, 100 μM pramlintide. The procedure:
Solubility versus pH curves were measured in the following way. A formulation was prepared and aliquotes were adjusted to pH values in the desired range by adding HClO4 or HCl and NaOH. These samples were left equilibrating at room temperature for 2-3 days. Then the samples were centrifuged. A small aliquot of each sample was withdrawn for reverse HPLC analysis for determination of the concentration of the proteins in solution. The pH of each sample was measured after the centrifugation, and the concentration of each protein was depicted versus the measured pH.

The conditions of data set [2]: pramlintide without the insulin analogue; cited from earlier work.

`CC[C@H](C)[C@H](NC(=O)[C@@H]1CCCN1C(=O)CNC(=O)[C@H](Cc1ccccc1)NC(=O)[C@H](CC(N)=O)NC(=O)[C@H](CC(N)=O)NC(=O)[C@H](CO)NC(=O)[C@H](CO)NC(=O)[C@H](Cc1c[nH]cn1)NC(=O)[C@@H](NC(=O)[C@H](CC(C)C)NC(=O)[C@H](Cc1ccccc1)NC(=O)[C@H](CC(N)=O)NC(=O)[C@H](C)NC(=O)[C@H](CC(C)C)NC(=O)[C@H](CCCNC(=N)N)NC(=O)[C@H](CCC(N)=O)NC(=O)[C@@H](NC(=O)[C@H](C)NC(=O)[C@@H]1CSSC[C@H](NC(=O)[C@@H](N)CCCCN)C(=O)N[C@@H](CC(N)=O)C(=O)N[C@@H]([C@@H](C)O)C(=O)N[C@@H](C)C(=O)N[C@@H]([C@@H](C)O)C(=O)N1)[C@@H](C)O)C(C)C)C(=O)N[C@@H](CC(C)C)C(=O)N1CCC[C@H]1C(=O)N1CCC[C@H]1C(=O)N[C@H](C(=O)N[C@@H](CC(N)=O)C(=O)N[C@H](C(=O)NCC(=O)N[C@@H](CO)C(=O)N[C@@H](CC(N)=O)C(=O)N[C@H](C(=O)N[C@@H](Cc1ccc(O)cc1)C(N)=O)[C@@H](C)O)C(C)C)[C@@H](C)O` [pramlintide, Pro25 Pro28 Pro29-h-amylin]: in data set [1], the “solubility state at pH 7” value is on record as “completely precipitated”. Besides, the “solubility at pH 7.4 (usual behaviour, alone)” value in data set [2] is on record as “soluble”.
